# According to PubChem BioAssay AID567 (The Scripps Research Institute Molecular Screening Center, 2006):
# The chains behind the UniProt entries cited, without tags or fusion partners.
# UniProt P08908, whole entry: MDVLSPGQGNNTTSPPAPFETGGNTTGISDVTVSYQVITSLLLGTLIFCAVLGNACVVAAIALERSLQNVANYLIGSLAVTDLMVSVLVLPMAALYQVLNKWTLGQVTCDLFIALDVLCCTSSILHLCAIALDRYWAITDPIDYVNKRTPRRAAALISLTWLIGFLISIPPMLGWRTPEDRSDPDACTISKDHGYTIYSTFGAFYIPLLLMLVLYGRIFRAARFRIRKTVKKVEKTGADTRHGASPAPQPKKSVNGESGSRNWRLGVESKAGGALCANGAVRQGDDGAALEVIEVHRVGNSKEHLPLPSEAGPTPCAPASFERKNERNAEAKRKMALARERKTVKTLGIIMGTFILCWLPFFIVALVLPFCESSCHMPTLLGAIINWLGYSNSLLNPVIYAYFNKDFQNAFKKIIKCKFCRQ
# The entries are a selection whose mix differs from that of the whole data set. Calls of active or inactive are those of the source.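 How the source made its calls: active means activation above the screen-wide mean activation plus 3 SD (cut at about 19% in these data); inactive means the rest.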
# Biological target: 5-hydroxytryptamine receptor 1A (Homo sapiens) (UniProt P08908)
# Experiment: human 5-HT1a receptor agonists, primary screen, cell-based, CHO, Ga15 NFAT-bla reporter (AID 567);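 further: 0% = DMSO wells and 100% = 5-CT at EC100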
# Conditions: CHO 5-HT1a Ga15 NFAT-bla reporter, FRET ratio; at 10 µM; active compounds read high; 0% basal, 100% maximal reference agonist
row,SMILES,activation
1,CN(C)CCOC(=O)C(O)(c1ccccc1)C1CCCCC1 (stereo not drawn),inactive: -4.57%
2,CCOP(C)(=S)SCC(=O)NC(C)(CC)C(=O)O (stereo not drawn),inactive: -2.26%
3,Cc1ccccc1NP(C)(=O)Nc1ccccc1C,inactive: -4.48%
4,CP(=O)(Nc1ccc2c(c1)OCCO2)Oc1ccccc1 (stereo not drawn),inactive: -0.41%
5,CP(=O)(Nc1ccccc1F)Oc1ccccc1 (stereo not drawn),inactive: -0.43%
6,COc1ccccc1OP(C)(=O)Nc1ccc(C)c(C)c1 (stereo not drawn),inactive: -0.9%
7,Cc1nc2ccc3ccccc3c2o1.O=[N+]([O-])c1cc([N+](=O)[O-])c(O)c([N+](=O)[O-])c1,inactive: -3.21%
8,CP(=O)(Nc1ccccn1)Oc1ccccc1 (stereo not drawn),inactive: -3.2%
9,CP(=O)(Oc1ccccc1)N1CCOC1=O (stereo not drawn),inactive: -0.6%
10,COc1ccccc1OP(C)(=O)Nc1c(C)n(C)n(-c2ccccc2)c1=O (stereo not drawn),inactive: 1.59%
11,CCN(CC)CC(O)COC(=O)C(O)(c1ccccc1)C1CCCCC1 (stereo not drawn),inactive: 1.99%
12,CP(=S)(Nn1cnnc1)Oc1ccccc1 (stereo not drawn),inactive: -1.61%
13,CP(=O)(NC(=O)Nc1ccccc1)Oc1ccccc1 (stereo not drawn),inactive: -0.22%
14,CCOP(C)(=S)SCC(=O)NC(C)C(=O)O (stereo not drawn),inactive: -2.14%
15,COc1ccccc1OP(C)(=O)Nc1ccc(C)cc1 (stereo not drawn),inactive: -2.81%
16,Cc1ccc(NP(C)(=O)Oc2ccccc2)c(C)c1 (stereo not drawn),inactive: -1.84%
17,Cc1ccc(C)c(NP(C)(=O)Oc2ccccc2)c1 (stereo not drawn),inactive: 0.58%
18,Cc1nc2ccc3ccccc3c2s1.O=[N+]([O-])c1cc([N+](=O)[O-])c(O)c([N+](=O)[O-])c1,inactive: -0.92%
